Columns and labels:
h.cMet-ECD-His = molecular target: T1, h.cMet-ECD-His (Homo sapiens, UniProt P08581); assay: ELISA protein affinity of cMET antibodies before and after conjugating into ADCs; format: binding
T1 construct: a human cMet ectodomain recombinant protein (Human HGF R/c-MET Protein, His Tag); purchased Acrobiosystems Co., Ltd. / ACRO Biosystems MET-H5227
T1 sequence (P08581 25-932 limits assumed): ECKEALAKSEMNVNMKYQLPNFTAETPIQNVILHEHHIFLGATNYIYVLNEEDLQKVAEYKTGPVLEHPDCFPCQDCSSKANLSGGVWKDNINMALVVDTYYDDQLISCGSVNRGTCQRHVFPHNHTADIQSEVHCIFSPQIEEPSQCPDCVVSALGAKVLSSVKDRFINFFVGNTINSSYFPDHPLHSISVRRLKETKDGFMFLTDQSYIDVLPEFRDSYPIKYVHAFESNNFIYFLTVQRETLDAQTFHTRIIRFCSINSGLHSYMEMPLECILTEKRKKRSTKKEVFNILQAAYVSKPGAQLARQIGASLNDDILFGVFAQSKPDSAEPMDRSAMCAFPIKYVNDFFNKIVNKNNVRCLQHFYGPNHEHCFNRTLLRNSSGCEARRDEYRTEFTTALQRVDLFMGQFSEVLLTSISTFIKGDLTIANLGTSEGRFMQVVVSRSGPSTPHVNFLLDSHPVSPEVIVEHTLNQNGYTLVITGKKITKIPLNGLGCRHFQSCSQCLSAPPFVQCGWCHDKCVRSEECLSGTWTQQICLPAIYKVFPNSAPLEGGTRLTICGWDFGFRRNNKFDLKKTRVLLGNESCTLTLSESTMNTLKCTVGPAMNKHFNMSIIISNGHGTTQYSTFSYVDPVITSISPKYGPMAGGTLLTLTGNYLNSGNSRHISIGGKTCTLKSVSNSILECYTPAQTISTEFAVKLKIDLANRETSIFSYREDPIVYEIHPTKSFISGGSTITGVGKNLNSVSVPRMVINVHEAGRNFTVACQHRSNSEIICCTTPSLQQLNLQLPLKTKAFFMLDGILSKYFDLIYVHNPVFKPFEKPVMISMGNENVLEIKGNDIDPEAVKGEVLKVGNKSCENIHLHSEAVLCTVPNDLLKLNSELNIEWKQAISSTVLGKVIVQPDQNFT

NCI-H358 cells [1] = assay: Flow cell affinity of ADCs, NCI-H358; format: binding, human; details: flow cytometry
NCI-H69 cells = assay: Flow cell affinity of ADCs, NCI-H69; format: binding, human; details: flow cytometry
LS1034 cells [2] = assay: Flow cell affinity of ADCs, LS1034; format: binding, human; details: flow cytometry
LS1034 cells [3] = assay: In-vitro killing activity Test 1 (CCK8), LS1034; format: cell-based, human; details: 5 days, read-out: EC50 of ADC killing (nM) LS1034
NCI-H358 cells [4] = assay: In-vitro killing activity Test 1 (CCK8), NCI-H358; format: cell-based, human; details: 5 days, read-out: EC50 of ADC killing (nM) NCI-H358
NCI-H716 cells = assay: In-vitro killing activity Test 1 (CCK8), NCI-H716; format: cell-based, human; details: 7 days, read-out: EC50 of ADC killing (nM) NCI-H716
SW480 cells = assay: In-vitro killing activity Test 1 (CCK8), SW480; format: cell-based, human; details: 7 days, read-out: EC50 of ADC killing (nM) SW480
[5] = test system: human non-small cell lung cancer NCI-H358 cells; assay: In-vivo efficacy in NCI-H358 CDX models (Test 1); design: species or system mouse; details: i.v., QW*3, NCI-H358 CDX
[6] = test system: human colon cancer SW480 cell lines; assay: In-vivo efficacy in SW480 CDX models; design: species or system mouse; details: 5 mg/kg, i.v., QW*2, SW480 CDX
[7] = test system: human colorectal adenocarcinoma NCI-H716 cell lines; assay: In-vivo efficacy in NCI-H716 CDX models; design: species or system mouse; details: i.v., QW*3, NCI-H716 CDX

B1: 55A10G6-HZ-B81 (DAR8) (conjugate)
heavy: QIQLVQSGAEVKKPGASVKVSCKASGYTFTDYYLNWVRQAPGQGLEWMGWIFPGSGNTKYSQKFQGRVTLTVDTSASTAYMELSSLRSEDTAVYYCAGGDYGGFTYWGQGTLVTVSSASTKGPSVFPLAPSSKSTSGGTAALGCLVKDYFPEPVTVSWNSGALTSGVHTFPAVLQSSGLYSLSSVVTVPSSSLGTQTYICNVNHKPSNTKVDKKV[human IgG1 Fc omitted here]
light: DIQMTQSPSSLSASVGDRVTITCGASENIYGALNWYQQKPGKAPKLLIYGATNLAAGVPSRFSGSGSGRDFTLTISSLQPEDFATYYCQNVLSEPLTFGQGTKVEIKRTVAAPSVFIFPPSDEQLKSGTASVVCLLNNFYPREAKVQWKVDNALQSGNSQESVTEQDSKDSTYSLSSTLTLSKADYEKHKVYACEVTHQGLSSPVTKSFNRGEC
EC50 (h.cMet-ECD-His): 3.923 ng/mL
NCI-H358 Maximum signal value (NCI-H358 cells [1]): 46313
NCI-H69 Maximum signal value (NCI-H69 cells): 10484
LS1034 Maximum signal value (LS1034 cells [2]): 9601
EC50 (LS1034 cells [3]): 101 nM
EC50 (NCI-H358 cells [4]): 145 nM
EC50 (NCI-H716 cells): 4.66 nM
EC50 (SW480 cells): 87.5 nM
TGI (%) on Day 14 ([5]; 1 mg/kg): 93.8%
TGI (%) on Day 14 ([5]; 3 mg/kg): 93.9%
TGI (%) on Day 15 [6]: 93.7%
TGI (%) on Day 14 ([7]; 0.3 mg/kg): 7.6%
TGI (%) on Day 14 ([7]; 1 mg/kg): 58.6%
